# Binding of CDR-mutated scFvs to a peptide of the spike HR2 region

Reference: Li et al. 2023, doi:10.1038/s41467-023-39022-2. File: FLAb, binding data.

Target peptide (SARS-CoV-2 spike, HR2 region): PDVDLGDISGINAS

The variants keep the light chain, the linker and the frameworks of Ab-14 (scFv order VH, the linker GGGGSGGGGSGGGGS, VL).
VH: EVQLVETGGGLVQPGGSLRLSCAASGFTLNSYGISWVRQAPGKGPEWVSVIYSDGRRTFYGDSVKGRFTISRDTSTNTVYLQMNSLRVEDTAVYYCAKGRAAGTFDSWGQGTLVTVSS
VL: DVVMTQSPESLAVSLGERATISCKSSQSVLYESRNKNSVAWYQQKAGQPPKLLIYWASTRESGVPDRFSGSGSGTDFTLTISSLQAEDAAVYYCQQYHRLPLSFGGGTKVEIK

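The variants were designed computationally from a first round of random CDR variants and then made and measured. Group labels follow the data file (Ctrl: baseline library sampled from a position-specific scoring matrix, with some repeated check sequences; Rand: our label for a block that the file lists under HC and that is probably the random mutants of the ten best first-round binders; En: ensemble of fine-tuned language models; GP: Gaussian process model; GPLM: also part of the Gaussian process libraries; HC: hill climbing; Gen: genetic algorithm; Gibbs: Gibbs sampling; a sequence that several methods proposed may carry one label only). In AlphaSeq, yeast of one mating type display the scFv and yeast of the other type display the target. Mating (16 h, 30 °C) was followed by selection of diploids and sequencing of their barcodes. Read counts were normalised to the haploid input and turned into Kd by a linear fit to BCL2-family pairs of known affinity, for each replicate. There are six technical replicates.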

Variants are written as CDR1, CDR2 and CDR3 of the heavy chain (limits as in the source). Parent: GFTLNSYGIS, VIYSDGRRTFYGDSVK, GRAAGTFDS.
Affinities are written as log10 Kd with Kd in nM; a lower number is a better binder.
"n.d." marks a missing value. The strain was present, yet no cells mated with the target were sequenced in that replicate, which points to weak or no binding.
Values of this round are not directly comparable with the first-round values of the same sequences.
Of ten entries with the parent sequence, four were seen in most replicates (averages 0.34 to 2.37), three in one and three in none, so single entries are noisy.
The authors averaged sequences with at least three values out of six and counted those with two or fewer as poor binders.
As a blank, each scFv also met three strains without target: over all heavy chain designs, 1% of these pairings were detected, typically at 2.08 and seldom below 0.84.

| CDR-H1 | CDR-H2 | CDR-H3 | group | log10 Kd, replicates |
|---|---|---|---|---|
| GFTLNSYGIS | VIYSDGRRTFYGDSVK | GRQAGTFIS | Ctrl | n.d. n.d. n.d. n.d. n.d. n.d. |
| GADINEYGIS | VIYADGNRIAYQDQVK | GNNAGSFDI | En_Gibbs | n.d. n.d. n.d. n.d. n.d. 2.86 |
| GFILNDYGIS | VIYSDGRRTQYIDSVK | GRAAGTFDS | Rand | 1.46 n.d. n.d. 2.31 1.67 3.97 |
| GFTLNSYGIS | VIYSDGRRTFYTDSVK | TRAAGTFDS | Ctrl | n.d. n.d. n.d. n.d. n.d. n.d. |
| GFSLNEYGIS | VIYSDGRRTFYMDSVK | GRTAGTFWS | GP_Gibbs | n.d. n.d. n.d. n.d. n.d. n.d. |
| GFDLNSYGIS | VIYSDGRRTFYGDDVK | GRAAGHFRS | GP_HC | n.d. n.d. n.d. n.d. n.d. n.d. |
| GFTLNSYGIS | VIYRDGRRTFYQDSVK | GRAAGTFDS | Ctrl | n.d. n.d. n.d. n.d. n.d. n.d. |
| GFNFDEYGIS | VIYADGMRRAYVDDVK | GSHSDVFNM | En_Gibbs | n.d. n.d. n.d. n.d. n.d. n.d. |
| GPTLNSYSIS | VIYSDGRRTFYGDSVK | GEQAGSFDT | Ctrl | n.d. n.d. n.d. n.d. n.d. n.d. |
| GFELNSYGIS | VIYSDGRRTFYGDSVK | GAEAGTFDT | GP_Gibbs | -0.17 0.11 -0.08 -0.25 -0.01 -0.07 |
| GFDLNEYGIS | VIYADGMRTHYTDSVK | GNEAGTFDL | En_HC | -1.02 -0.97 -1.06 n.d. -1.11 -0.96 |
| GFSLNEYGIS | VIYSDGRRTFYHDSVK | GRAAGTFDS | GPLM_Gen | 0.66 0.06 0.94 0.03 0.25 0.94 |
| GFDLNEYGIS | VIYADGMRTAYADDVK | GNQAGTFDV | En_Gen | -0.11 -0.50 -0.48 -0.32 -0.49 -0.23 |
| GFDINEYGIS | VIYADGNRTMYQDQVK | GGNGGSFVI | En_Gibbs | n.d. n.d. n.d. n.d. n.d. n.d. |
| GFDLNSYGIS | VIYSDGRRTFYGDSVK | GRAAGTFDV | GP_Gen | 0.29 -0.75 -0.45 -0.53 -0.66 -0.36 |
| GFDLNEYGIS | VIYADGRRTAYTDSVK | GEAAGTFDS | En_HC | -1.63 -1.02 -0.57 -0.79 -1.57 -1.25 |

Second part, the sequence after the result:

| log10 Kd, replicates | CDR-H1 | CDR-H2 | CDR-H3 | group |
|---|---|---|---|---|
| n.d. n.d. n.d. n.d. n.d. n.d. | GFTLNDYGIS | VIYSDGRRTFYADSVK | GRTAGTFIS | GPLM_HC |
| n.d. n.d. n.d. n.d. n.d. n.d. | GFTLNSYGHS | VIYSDGRRTFYQDSVK | RRAAGTFDS | Ctrl |
| 2.44 1.35 2.37 1.72 1.70 1.62 | GFRLNSYGIS | VIYSDGRRTFYHDSVK | GQLAGTFDS | GP_HC |
| 0.26 -0.13 0.27 0.29 0.60 0.03 | GFDLDEYGIS | VIYADGVRTAYVDSVK | GNQAGTFDV | En_Gen |
| n.d. 1.20 1.45 1.84 2.20 2.42 | GFTLNSYGIS | VIYSDGRRTFYKDSVK | GKLAGTFDS | GPLM_HC |
| 0.26 -0.03 0.11 0.11 0.41 0.07 | GFGLNSYGIS | VIYSDGRRTFYSDSVK | GKTAGTFDS | GP_Gen |
| n.d. n.d. n.d. n.d. n.d. n.d. | KFSLNSYGIS | VIYSDGRRTFYGDSVK | GRTAGTFDS | GPLM_Gen |
| n.d. n.d. n.d. n.d. n.d. n.d. | GFTKNEYGIS | VIYSDGRRTFYGDSVK | GRAAVTFDQ | Rand |
| 0.02 1.16 1.44 -0.41 0.01 1.07 | GFDLNSYGIS | VIYSDGRRTFYGDSVK | GATAGTFDS | GP_Gen |
| -0.39 -0.41 -0.49 -0.18 -0.49 -0.04 | GFDLNEYGIS | VIYADGRRTFYADSVK | GNTAGTFDV | En_Gen |
| -0.59 -0.46 -0.85 -0.51 -1.06 -0.69 | GFDLNEYGIS | VIYADGRRTAYADSVK | GEVAGTFDA | En_Gen |
| 0.82 0.53 0.15 0.45 0.48 0.40 | GFDLNEYGIS | VIYADGRRTAYADSVK | GKNAGTFLV | En_HC |
| 0.16 -0.34 -0.55 -0.18 -0.13 -0.30 | GFTLNSYGIS | VIYSDGRRTFYSDSVK | GKIAGTFDS | GPLM_Gen |
| 1.60 0.58 1.13 0.78 0.43 1.35 | GFHLNSYGIS | VIYSDGRRTFYADSVK | GQAAGTFDS | GPLM_Gen |
| 2.52 2.21 2.41 n.d. 1.88 2.19 | GFTLNSYGIS | VIYSDGRRTFYGDSVR | GRAAVTFDS | Ctrl |
| 1.27 1.11 1.42 1.76 0.98 1.52 | GFNLNSYGIS | VIYSDGRRTFYGDSVK | GRLAGTFDT | GP_Gen |

Picked from the list: the 5 lowest averages where every replicate gave a value.

| CDR-H1 | CDR-H2 | CDR-H3 | group | log10 Kd, replicates |
|---|---|---|---|---|
| GFDLNEYGIS | VIYADGRRTAYTDSVK | GEAAGTFDS | En_HC | -1.63 -1.02 -0.57 -0.79 -1.57 -1.25 |
| GFDLNEYGIS | VIYADGRRTAYADSVK | GEVAGTFDA | En_Gen | -0.59 -0.46 -0.85 -0.51 -1.06 -0.69 |
| GFDLNSYGIS | VIYSDGRRTFYGDSVK | GRAAGTFDV | GP_Gen | 0.29 -0.75 -0.45 -0.53 -0.66 -0.36 |
| GFDLNEYGIS | VIYADGMRTAYADDVK | GNQAGTFDV | En_Gen | -0.11 -0.50 -0.48 -0.32 -0.49 -0.23 |
| GFDLNEYGIS | VIYADGRRTFYADSVK | GNTAGTFDV | En_Gen | -0.39 -0.41 -0.49 -0.18 -0.49 -0.04 |